Literature values, collected in patent US4898729A, “Treatment of hypertension, compounds and compositions for antihypertension and diuresis” (priority 1983, dated 1990).

Legend:
[1] = cited from earlier work
[2] = comparison with chlorothiazide having a value of 1; cited from earlier work

SMILES: CN1C(CSCC(F)(F)F)Nc2cc(Cl)c(S(N)(=O)=O)cc2S1(=O)=O (stereo not drawn) [Polythiazide]
- Range diuretic dose ([1]; Example 1 table): 4 to 8 mg
- Daily Diuretic Dose (average minimum diuretic dose) ([1]; average daily dose): 8 mg
- Approx. Natriuretic Activity [2]: 200
